Assay results: patent publication US20160303231A1, “TREATING CANCER WITH A COMBINATION OF A PD-1 ANTAGONIST AND A VEGFR INHIBITOR” (GLAXOSMITHKLINE LLC, priority 2013, published 2016)

Test system: RENCA cells
Experiment: Anti-tumor response of tumor-bearing mice (RENCA tumor model)
Assay type: in vivo, BALB/c mice
Settings: G4: Isotype 5 mpk + Pazopanib 100 mpk qd; Mean ± SEM; day 17
Description: The anti-tumor therapeutic response of tumor-bearing mice to treatment with one of three regimens: monotherapy with a murine anti-mouse PD-1 monoclonal antibody (Anti-PD1), monotherapy with pazopanib and combination therapy with these two agents administered concurrently.
A cohort of 8 weeks old female BALB/c mice were implanted with 1×10^6 RENCA cells. When the tumors were ˜115 cubic mm, the tumor-bearing mice were randomized to the following 9 treatment groups of 12 mice per group: (1) 5 mg/Kg Isotype+Vehicle control group; (2) 1 mg/Kg Anti-PD1+Vehicle control; (3) 5 mg/Kg Anti-PD1+Vehicle control; (4) once daily pazopanib+5 mg/Kg Isotype control; (5) once daily pazopanib+5 mg/Kg Anti-PD1; (6) once daily pazopanib+1 mg/Kg Isotype control; (7) once daily pazopanib+1 mg/Kg Anti-PD1; (8) twice daily pazopanib+5 mg/Kg Isotype and (9) twice daily pazopanib+5 mg/Kg Anti-PD1. The Vehicle control was 0.5% hydroxypropylemethylcellulose, 0.1% Tween-80 in distilled water, pH adjusted to 1.3-1.5 with 0.1N hydrochloric acid. The Isotype control was mouse IgG1 specific for an adenoviral hexon protein (clone TC31.27F11). Anti-PD1 was administered to treatment groups 2 and 7 at 1 mg/kg i.p., or groups 3, 5, and 9 at 5 mg/Kg i.p. every 5 days for each of 5 cycles. […]

Cc1ccc(Nc2nccc(N(C)c3ccc4c(C)n(C)nc4c3)n2)cc1S(N)(=O)=O [Pazopanib, 5-[[4-[(2,3-dimethyl-2H-indazol-6-yl)methylamino]-2-pyrimidinyl]amino]-2-methylbenzenesulfonamide monohydrochloride]
Tumor Size (D17): 1,555 ± 162 mm^3

Counter-ions that a name gives are not always drawn.
